Reference: patent US6187782A, “Morphinane derivatives and medicinal use thereof” (dated 2001)

Tests used:
opioid ε-receptor [1] = conditions: read-out: Ke Value; Ke=[Concentration of Antagonist Added]/(DR-1); β-endorphin as agonist, about 15 minutes after addition of test compound
opioid ε-receptor [2] = conditions: concentration of added compound at which the inhibitory effect reached plateau
ddy mice [3] = experiment: Analgesic Activity Test Using the Acetic Acid-induced Writhing Method; conditions: subcutaneous, 15 minutes before acetic acid (0.6% i.p.); ddy mice 5 weeks old
ddy mice [4] = experiment: Analgesic Activity Test Using the Hot Plate Method; conditions: subcutaneous, 30 minutes before measuring; cut-off 30 seconds; ddy mice 5 weeks old

| SMILES | Kb (opioid ε-receptor [1]) [nM] | Concentration of Compound (opioid ε-receptor [2]) [µM] | other results |
| --- | --- | --- | --- |
| C=CCNC(=O)[C@H]1C[C@@]23C=C[C@]1(O)[C@@H]1Oc4c(O)ccc5c4[C@@]12CCN(CC1CC1)[C@@H]3C5 | 1.7 |  |  |
| O=C(NCCCCc1ccccc1)[C@@H]1C[C@@]23C=C[C@]1(O)[C@@H]1Oc4c(O)ccc5c4[C@@]12CCN(CC1CC1)[C@@H]3C5 | 0.41 |  |  |
| CN(CCc1ccccc1)C(=O)[C@H]1C[C@@]23CC[C@]1(O)[C@@H]1Oc4c(O)ccc5c4[C@@]12CCN(CC1CC1)[C@@H]3C5 |  | 2.2 |  |
| CO[C@]12C=C[C@@]3(C[C@H]1NC(=O)CCCCc1ccccc1)[C@H]1Cc4ccc(O)c5c4[C@@]3(CCN1CC1CC1)[C@H]2O5 | 0.18 |  |  |
| CN(CCc1ccccc1)C(=O)[C@H]1C[C@@]23C=C[C@]1(O)[C@@H]1Oc4c(O)ccc5c4[C@@]12CCN(CC1CC1)[C@@H]3C5 |  | 1.0 | ED50 Value (analgesic activity, acetic acid writhing) (ddy mice [3]): 17.7 μg/kg body weight |
| O=C(NCCc1ccccc1)[C@@H]1C[C@@]23C=C[C@]1(O)[C@@H]1Oc4c(O)ccc5c4[C@@]12CCN(CC1CC1)[C@@H]3C5 | 0.83 |  |  |
| CN(CCc1ccccc1)C(=O)[C@H]1C[C@@]23C=C[C@]1(O)[C@@H]1Oc4c(O)ccc5c4[C@@]12CCN(CCc1ccccc1)[C@@H]3C5 |  | 1.0 |  |
| O=C(NCc1ccccc1)[C@H]1C[C@@]23C=C[C@]1(O)[C@@H]1Oc4c(O)ccc5c4[C@@]12CCN(CC1CC1)[C@@H]3C5 | 0.56 |  |  |
| O=C(NCCc1ccccc1)[C@H]1C[C@@]23C=C[C@]1(O)[C@@H]1Oc4c(O)ccc5c4[C@@]12CCN(CC1CC1)[C@@H]3C5 |  | 2.5 | ED50 Value (analgesic activity, acetic acid writhing) (ddy mice [3]): 238.8 μg/kg body weight; ED50 of the analgesic activity (hot plate) (ddy mice [4]): 2.64 mg/kg body weight |
| O=C(NCCCCc1ccccc1)[C@H]1C[C@@]23C=C[C@]1(O)[C@@H]1Oc4c(O)ccc5c4[C@@]12CCN(CC1CC1)[C@@H]3C5 | 0.51 |  |  |
| O=C(NCCCc1ccccc1)[C@H]1C[C@@]23C=C[C@]1(O)[C@@H]1Oc4c(O)ccc5c4[C@@]12CCN(CC1CC1)[C@@H]3C5 | 0.71 |  |  |
| CO[C@]12C=C[C@@]3(C[C@@H]1NC(=O)CCCCc1ccccc1)[C@H]1Cc4ccc(O)c5c4[C@@]3(CCN1CC1CC1)[C@H]2O5 | 0.83 |  |  |
